Experimental data from PubChem BioAssay AID1745845 (National Center for Advancing Translational Sciences (NCATS), 2022).
In all, about 360,000 compounds went through this assay and about 2,600 (0.72%) were called active. The source calls these results inconclusive, neither active nor inactive. Calls come from the whole dose curve; as a rule, active = well fitted inhibition curve with a large enough effect; inconclusive = small, poorly fitted or top-dose-only effect; inactive = no such curve, though single readings can be large or run the other way.

Assay: Primary qHTS for Inhibitors of ATXN expression; note: nearly all actives have a fitted effect of over 55% in size
Settings: HEK-293 ATXN2-luciferase reporter, luminescence, 24 h
Potency is the fitted concentration of half-maximal effect.

SMILES | Potency
CN(C)C(=O)c1cc([N+](=O)[O-])cc2c1-c1c(cc([N+](=O)[O-])cc1[N+](=O)[O-])C2=O | inconclusive: 28.2 µM
CCC(C)N(CC(C)C)C(=S)SC(NC(C)=O)C(Cl)(Cl)Cl (stereo unspecified) | inconclusive: 35.5 µM
O=[N+]([O-])c1cc([N+](=O)[O-])c(-c2ccn[nH]2)s1 | inconclusive: 12.6 µM
CCc1nc2c(n1)c1c(non1O)c1c2no[n+]1[O-] | inconclusive: 31.6 µM
N#C/C(=C\c1ccc(N(CCBr)CCBr)cc1)C(N)=O | inconclusive: 10.6 µM
CC(=O)Nc1ccc(Oc2c([N+](=O)[O-])cc([N+](=O)[O-])cc2[N+](=O)[O-])cc1 | inconclusive: 29.9 µM
